Patent publication US20040091907A1 (SUGEN, published 2004)

By UniProt entry, the sequences of proteins in these tests, tags left out. Residues count along the entry.
UniProt O96013, 291-591: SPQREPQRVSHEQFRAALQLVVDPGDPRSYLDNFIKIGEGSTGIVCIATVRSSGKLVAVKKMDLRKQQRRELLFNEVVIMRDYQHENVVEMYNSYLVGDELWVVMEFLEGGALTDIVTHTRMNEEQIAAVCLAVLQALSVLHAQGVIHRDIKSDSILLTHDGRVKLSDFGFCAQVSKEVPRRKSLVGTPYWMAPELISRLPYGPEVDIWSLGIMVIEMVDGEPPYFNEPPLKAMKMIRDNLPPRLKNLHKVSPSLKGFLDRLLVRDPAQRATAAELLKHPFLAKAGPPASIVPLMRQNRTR

Columns and labels:
[1] = target: T1, full-length myc-tagged PAK4 protein (human, UniProt O96013); assay: GST pull-down on glutathione beads from 293T lysate, myc immunoblot
T1 construct: Over-expressed in 293T cells, used as cell lysate; also called exogenous PAK4
Method: (§1) An equivalent amount of beads and excess lysates (500 ug) were used. Eluates of beads and total lysates were analysed by SDS-PAGE and immunoblotted with myc or GEF-H1 antiserum; (c) represents a PAK4 gene schematic outlining the regions of PAK4 used to identify the GEF-H1 interaction domain (GID). d, alignment of the GID defined by the minimal binding region of PAK4 with PAK5 and PAK6.
(§2) These fusion proteins were bound to glutathione beads and utilized in binding assays with 293T lysates expressing exogenous PAK4.
(§3) The GST immobilized GEF-H1S polypeptide was used to conduct immunoprecipitation from the 293T cell extracts. The resulting protein complexes on the beads were identified by separating on SDS-PAGE followed by Western blotting to identify proteins that are present. The Western blot technique (Renart et al., Methods Enzymol., 104:455-60, 1984) is universally used to identify proteins using specific immunoreagents like antibodies. […] PAK4 was not present after immunoprecipitation with immobilized fusion partner GST. This interaction was limited by the presence or absence of GEF-H1S.

[2] = target: T2, myc-tagged PAK4 kinase domain (amino acids 291-591) (human, UniProt O96013, in part); assay: as above
T2 construct: Over-expressed in 293T cells, used as cell lysate
Method: as §1, §2, §3

B1: GST (Glutathione-S-transferase) (other, UniProt P08515 1-218, looked up)
chain: MSPILGYWKIKGLVQPTRLLLEYLEEKYEEHLYERDEGDKWRNKKFELGLEFPNLPYYIDGDVKLTQSMAIIRYIADKHNMLGGCPKERAEISMLEGAVLDIRYGVSRIAYSKDFETLKVDFLSKLPEMLKMFEDRLCHKTYLNGDHVTHPDFMLYDALDVVLYMDPMCLDAFPKLVCFKKRIEAIPQIDKYLKSSKYIAWPLQGWQATFGGGDHPPK
notes: Control; also called GST control protein; fusion partner GST
B1: no binding [1]; no binding [2].
